Experimental data taken from ChEMBL document CHEMBL1145385, “Functional differences in epigenetic modulators-superiority of mercaptoacetamide-based histone deacetylase inhibitors relative to hydroxamates in cortical neuron neuroprotection studies” (J Med Chem, 2007).

Chains of the proteins cited; added tags and fusions are not shown.
UniProt Q92769, whole entry: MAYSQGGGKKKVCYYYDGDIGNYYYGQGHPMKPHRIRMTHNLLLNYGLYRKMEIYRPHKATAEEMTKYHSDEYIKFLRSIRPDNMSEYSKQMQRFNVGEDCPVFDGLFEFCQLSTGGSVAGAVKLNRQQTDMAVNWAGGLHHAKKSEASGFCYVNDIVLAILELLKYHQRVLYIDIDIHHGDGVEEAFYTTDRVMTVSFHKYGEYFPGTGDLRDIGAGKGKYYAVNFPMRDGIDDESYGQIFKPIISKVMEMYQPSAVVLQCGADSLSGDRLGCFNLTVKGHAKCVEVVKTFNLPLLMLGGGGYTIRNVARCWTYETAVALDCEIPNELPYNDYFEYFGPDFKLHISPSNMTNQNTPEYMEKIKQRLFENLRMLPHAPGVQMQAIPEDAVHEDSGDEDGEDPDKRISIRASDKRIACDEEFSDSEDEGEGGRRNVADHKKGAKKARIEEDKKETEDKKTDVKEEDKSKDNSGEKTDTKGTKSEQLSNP

Target: Histone deacetylase 2 (Homo sapiens, UniProt Q92769)
Assay: Inhibition of His-tagged HDAC2 expressed in Sf9 cells by fluorescence-based assay

CN(C)c1ccc(C(=O)NCCCCCNC(=O)CS)cc1
IC50: 6.46 µM
